Measurements reported in PubChem BioAssay (Tox21).
This is a selection; strong and weak results do not stand in their true shares. Records with an inconclusive call do not appear. Calls of active or inactive are those of the source. Unless noted, calls follow the shape of the full dose curve.

Sequences of proteins named here, by UniProt entry; tags and fusion partners are left off.
UniProt P30968, whole entry: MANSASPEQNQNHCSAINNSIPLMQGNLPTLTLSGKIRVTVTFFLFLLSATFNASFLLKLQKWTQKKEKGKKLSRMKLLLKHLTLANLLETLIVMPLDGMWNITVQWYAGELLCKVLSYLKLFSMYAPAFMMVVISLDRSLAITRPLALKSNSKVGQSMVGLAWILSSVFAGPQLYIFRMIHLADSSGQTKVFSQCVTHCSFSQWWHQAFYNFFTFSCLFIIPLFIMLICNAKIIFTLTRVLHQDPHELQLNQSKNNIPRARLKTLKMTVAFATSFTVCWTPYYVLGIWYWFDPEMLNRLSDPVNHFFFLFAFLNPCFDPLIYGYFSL
UniProt Q969F8, whole entry: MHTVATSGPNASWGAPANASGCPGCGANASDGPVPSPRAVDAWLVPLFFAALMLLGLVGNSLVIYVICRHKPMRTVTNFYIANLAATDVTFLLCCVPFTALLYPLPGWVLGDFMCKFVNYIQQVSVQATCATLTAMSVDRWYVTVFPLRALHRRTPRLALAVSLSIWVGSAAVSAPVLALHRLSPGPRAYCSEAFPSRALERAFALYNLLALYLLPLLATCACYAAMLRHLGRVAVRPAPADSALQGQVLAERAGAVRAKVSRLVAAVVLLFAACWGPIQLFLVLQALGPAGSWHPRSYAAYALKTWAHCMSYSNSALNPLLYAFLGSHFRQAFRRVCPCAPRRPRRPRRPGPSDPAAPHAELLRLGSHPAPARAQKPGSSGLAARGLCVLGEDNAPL
UniProt P28223, whole entry: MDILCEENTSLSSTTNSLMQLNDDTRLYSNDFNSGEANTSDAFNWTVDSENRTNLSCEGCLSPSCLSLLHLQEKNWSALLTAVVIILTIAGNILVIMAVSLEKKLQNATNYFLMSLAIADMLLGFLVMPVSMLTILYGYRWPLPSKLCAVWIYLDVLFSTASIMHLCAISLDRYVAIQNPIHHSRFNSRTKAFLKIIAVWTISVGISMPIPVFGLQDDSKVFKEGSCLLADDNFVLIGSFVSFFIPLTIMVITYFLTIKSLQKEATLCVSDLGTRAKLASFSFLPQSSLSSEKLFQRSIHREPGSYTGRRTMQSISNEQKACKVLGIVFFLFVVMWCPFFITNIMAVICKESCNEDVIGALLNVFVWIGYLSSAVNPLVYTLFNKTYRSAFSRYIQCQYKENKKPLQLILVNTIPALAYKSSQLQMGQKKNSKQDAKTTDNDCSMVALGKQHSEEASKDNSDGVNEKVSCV
UniProt P07550, whole entry: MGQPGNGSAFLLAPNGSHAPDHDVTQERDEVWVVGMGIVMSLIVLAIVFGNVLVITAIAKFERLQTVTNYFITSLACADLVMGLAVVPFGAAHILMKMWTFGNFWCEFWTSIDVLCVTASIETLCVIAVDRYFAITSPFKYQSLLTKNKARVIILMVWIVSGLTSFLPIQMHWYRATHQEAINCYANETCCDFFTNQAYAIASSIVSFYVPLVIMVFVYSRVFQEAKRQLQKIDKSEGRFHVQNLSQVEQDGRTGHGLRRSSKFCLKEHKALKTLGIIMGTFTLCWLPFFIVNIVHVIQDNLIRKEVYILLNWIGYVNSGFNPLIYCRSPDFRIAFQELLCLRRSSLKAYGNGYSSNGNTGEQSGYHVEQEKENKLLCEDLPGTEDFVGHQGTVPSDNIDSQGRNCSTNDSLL
UniProt P14416, whole entry: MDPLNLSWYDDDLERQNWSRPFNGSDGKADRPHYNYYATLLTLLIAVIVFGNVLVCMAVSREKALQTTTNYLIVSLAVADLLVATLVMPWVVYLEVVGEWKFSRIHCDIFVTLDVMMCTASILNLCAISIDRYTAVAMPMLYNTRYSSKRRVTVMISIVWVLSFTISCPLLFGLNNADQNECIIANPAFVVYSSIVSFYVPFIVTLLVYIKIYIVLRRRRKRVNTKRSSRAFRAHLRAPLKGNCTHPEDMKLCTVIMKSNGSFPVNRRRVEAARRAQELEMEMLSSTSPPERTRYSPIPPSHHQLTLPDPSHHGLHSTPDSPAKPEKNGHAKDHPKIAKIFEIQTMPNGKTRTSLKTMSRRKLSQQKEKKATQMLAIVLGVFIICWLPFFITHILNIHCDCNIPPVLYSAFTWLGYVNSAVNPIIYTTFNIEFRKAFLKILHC

Legend:
[1] = Nuclear factor erythroid 2-related factor 2/antioxidant responsive element (Nrf2/ARE) small molecule agonists: qHTS cell viability counter screen in human keratinocytes (AID 1919968; active = well fitted curve in the direction sought with a large enough effect in the repeat runs; an effect the other way counts as inactive or inconclusive; also: nearly all actives have a fitted effect of over 55% in size); settings: KeratinoSens HaCaT ARE cells viability, CellTiter-Fluor, 24 h; at 92.4 µM (top of the series)
In short: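 In human HaCaT keratinocytes stably expressing an ARE-driven luciferase, compound exposure lasted 23 h at 37 C under 5% CO2. Viable cells are quantified with a protease-based fluorogenic reagent (CellTiter-Fluor) read 1 h after addition.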

[2] = Nuclear factor erythroid 2-related factor 2/antioxidant responsive element (Nrf2/ARE) small molecule agonists: luciferase reporter gene qHTS assay in human keratinocytes (AID 1919969); settings: KeratinoSens HaCaT ARE-luciferase, luminescence, 24 h; at 92.4 µM (top of the series); also: nearly all actives have a fitted effect of over 35% in size
[3] = target: Gonadotropin-releasing hormone receptor (Homo sapiens) (UniProt P30968); experiment: Human gonadotropin-releasing hormone receptor (GnRHR) small molecule agonists, calcium flux assay in GnRHR-HEK293 cells (AID 1920063); settings: calcium flux fluorescence, agonist mode, at 57.6 µM (top of the series), hits give high values; also: nearly all actives have a fitted effect of over 35% in size
In short: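 Intracellular calcium rise is the read-out: engineered human GnRHR HEK293 cells, dye-loaded, are exposed to DMSO-dissolved compounds and fluorescence at Ex/Em 480/540 is tracked for 3 min.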

[4] = target: KiSS-1 receptor (Homo sapiens) (UniProt Q969F8); experiment: Human kisspeptin (KISS1R) small molecule agonists, calcium flux assay in KISS1R-HEK293 cells (AID 1920064; active = well fitted curve in the direction sought with a large enough effect in the repeat runs; an effect the other way counts as inactive or inconclusive); settings: KISS1R-HEK293, calcium flux fluorescence, agonist; at 76.8 µM (top of the series)
In short: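 Concentration-response testing used 15 concentrations in triplicate on human KISS1R-expressing HEK293 cells. Calcium-dependent fluorescence (Ex/Em 480/540) was followed kinetically for 3 min after compound transfer.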

[5] = G protein-coupled receptor (GPCR) small molecule agonists, calcium flux assay: HEK293 wild type cell line counter screen (AID 1920065); settings: HEK293 WT calcium flux, fluorescence, agonist mode; at 57.6 µM (top of the series)
In short: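 Fluorescence intensity signals activation. After overnight (18 h) culture and a 1 h calcium dye load at 37 C, compounds are added by pin tool and the plate read at 480/540 nm for 3 min in 1 s steps.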

[6] = p53 small molecule agonists, cell-based qHTS assay with human liver microsomes (AID 1963577); settings: HCT-116 p53RE-bla with human liver microsomes, ratio, 16 h; at 66 µM (top of the series);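 also: p53 response element beta-lactamase reporter cells with liver microsomes plus NADPH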
In short: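 Metabolically competent format: test substances, human liver microsomes and NADPH (both 0.5 mg/mL final) incubated with p53RE-bla cells 16 h at 37 C. Beta-lactamase reporter signal then quantified by fluorescence.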

[7] = p53 small molecule agonists, cell-based qHTS assay with rat liver microsomes (AID 1963578); settings: HCT-116 p53RE-bla, beta-lactamase ratio, 16 h, at 66 µM (top of the series)
In short: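 Each plate received p53RE-bla cells, then compound, then rat liver microsomes and NADPH (both 0.5 mg/mL final). Plates were held 16 h at 37 C, and beta-lactamase activity was detected with LiveBLAzer over 2 h.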

[8] = p53 small molecule agonists, cell-based qHTS assay with human liver microsomes: qHTS cell viability counter screen (AID 1963579); settings: p53RE-bla HCT-116 viability, ATP luminescence, 16 h, HLM; at 66 µM (top of the series); also: nearly all actives have a fitted effect of over 45% in size
In short: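 Tox21 library compounds, delivered from DMSO stocks, were tested on p53RE-bla cells together with 0.5 mg/mL human liver microsomes and 0.5 mg/mL NADPH (final) over 16 h at 37 C; CellTiter-Glo luminescence served as the cytotoxicity measure.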

[9] = p53 small molecule agonists, cell-based qHTS assay with rat liver microsomes: qHTS cell viability counter screen (AID 1963580); settings: p53RE-bla HCT-116 + rat microsomes, ATP viability, 16 h; at 66 µM (top of the series) unless noted; also: nearly all actives have a fitted effect of over 45% in size
In short: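 Cytotoxicity counter screen: intracellular ATP measured by CellTiter-Glo luminescence in the same wells as the beta-lactamase reporter read, on HCT-116 p53RE-bla cells exposed 16 h at 37 C to compounds with rat liver microsomes and NADPH, each 0.5 mg/mL final.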

[10] = p53 small molecule agonists, cell-based qHTS assay: qHTS cell viability counter screen (AID 1963581); settings: p53RE-bla HCT-116 viability, ATP luminescence, 16 h; at 66 µM (top of the series); also: nearly all actives have a fitted effect of over 45% in size
In short: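 Luminescence from CellTiter-Glo, reflecting ATP content, serves as the cytotoxicity measure; it is taken after the 2 h reporter substrate step in HCT-116 p53RE-bla cells dosed for 16 h at 37 C.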

[11] = target: 5-hydroxytryptamine receptor 2A (Homo sapiens) (UniProt P28223); experiment: 5-hydroxytryptamine receptor 2A (HTR2A) small molecule antagonists, cell-based qHTS assay (AID 1963586); settings: HTR2A-CHO cells, DOI-induced calcium flux, fluorescence; at 61.5 µM (top of the series); also: nearly all actives have a fitted effect of over 45% in size
In short: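 CHO cells stably expressing human HTR2A were plated for 18 h at 37 C, then loaded with calcium dye for 1 h. Compounds were preincubated 5 min at room temperature before DOI (4 nM solution) was added. Kinetic fluorescence was read for 3 min.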

[12] = target: 5-hydroxytryptamine receptor 2A (Homo sapiens) (UniProt P28223); experiment: 5-hydroxytryptamine receptor 2A (HTR2A) small molecule agonists, cell-based qHTS assay (AID 1963587); settings: HTR2A-CHO cells, calcium flux fluorescence, agonist mode; at 76.8 µM (top of the series); also: nearly all actives have a fitted effect of over 30% in size
In short: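 CHO cells stably expressing human HTR2A, plated 18 h, loaded with calcium dye 1 h at 37 C. Agonist mode: compounds added and intracellular calcium fluorescence recorded kinetically for 2 min at 1 sec intervals.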

[13] = target: Beta-2 adrenergic receptor (Homo sapiens) (UniProt P07550); experiment: Adrenergic beta2 receptor (ADRB2) small molecule antagonists, cell-based qHTS assay (AID 1963592); settings: CHO-ADRB2 cells, isoproterenol-stimulated cAMP HTRF ratio, 0.5 h; at 92.4 µM (top of the series); also: nearly all actives have a fitted effect of over 50% in size
In short: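 Assay format: CHO-ADRB2 cells, 18-20hr seeding at 37C/5% CO2, then compound plus 1nM isoproterenol agonist mix for 0.5hr RT. Homogeneous time-resolved fluorescence cAMP detection after 1hr, expressed as 665/615 nm ratio.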

[14] = target: Beta-2 adrenergic receptor (Homo sapiens) (UniProt P07550); experiment: Adrenergic beta2 receptor (ADRB2) small molecule agonists, cell-based qHTS assay (AID 1963593); settings: CHO-ADRB2 cells, cAMP HTRF, 30 min; at 92.4 µM (top of the series);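 also: CHO cells stably overexpressing human ADRB2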
In short: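 CHO cells stably over-expressing ADRB2 were plated overnight at 37C, then dosed with compounds plus a stimulation mix containing 100uM IBMX and 25uM Ro-20-1724 for 0.5hr at room temperature. cAMP was measured by HTRF competition, 1hr.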

[15] = target: D(2) dopamine receptor (Homo sapiens) (UniProt P14416); experiment: Dopamine D2 receptor (DRD2) small molecule agonists, cell-based qHTS assay (AID 1963594); settings: HEK293-DRD2 cAMP HTRF, agonist mode, 30 min; at 92.4 µM (top of the series); also: nearly all actives have a fitted effect of over 35% in size
In short: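 HEK293 cells stably expressing human DRD2, pre-treated with PDE inhibitor Ro20-1724 (0.1 mM final) and compound 10 min at room temperature, then stimulated with NKH477 (200nM […]) for 30 min. cAMP read by HTRF (665/620 nm).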

[16] = target: D(2) dopamine receptor (Homo sapiens) (UniProt P14416); experiment: Dopamine D2 receptor (DRD2) small molecule antagonists, cell-based qHTS assay (AID 1963595; active = well fitted inhibition curve with a large enough effect in the signal ratio in the repeat runs, with a control signal flat; the % refers to the signal ratio); settings: HEK293-DRD2 cAMP HTRF antagonist mode; at 92.4 µM (top of the series)
In short: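 HEK293 cells stably expressing DRD2 were preincubated with 0.1 mM Ro20-1724, then with compound for 10 min at room temperature. Cells were stimulated with 200 nM NKH477 plus 12 nM quinpirole for 30 min, and cAMP was read by HTRF.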

[17] = p53 small molecule agonists, cell-based qHTS assay (AID 1963582; active = well fitted activation curve with a large enough effect in the signal ratio in the repeat runs, not every such curve was filed as active; the % refers to the signal ratio)
In short: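 After plating, p53RE-bla cells sat 5 h in the incubator; compounds or DMSO vehicle were pinned in; a 16 h incubation at 37 C followed; FRET substrate was added and, 2 h later at RT, fluorescence was measured.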

[18] = cAMP Responsive Elements (CRE) small molecule agonists, cell-based qHTS assay (AID 1963590); settings: CRE-bla HEK293T, beta-lactamase FRET ratio, 3 h; at 92.4 µM (top of the series)
In short: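 Compound exposure lasted 3 h at 37 C/5% CO2 in CRE-bla HEK 293T cells grown in assay medium with 10% dialyzed FBS and 25 mM HEPES. Reporter signal came from LiveBLAzer B/G FRET substrate, 2 h, room temperature.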

[19] = cAMP Responsive Elements (CRE) small molecule antagonists, cell-based qHTS assay (AID 1963591; active = well fitted inhibition curve with a large enough effect in the signal ratio in the repeat runs, not every such curve was filed as active; the % refers to the signal ratio); settings: CRE-bla HEK293T, beta-lactamase FRET ratio; at 92.4 µM (top of the series)
In short: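 Stimulation used NKH477 at a final 0.25 uM for 3 h in compound-treated CRE-bla HEK293T cells, seeded 18 h beforehand. Reporter activity was measured with LiveBLAzer B/G FRET substrate after 2 h at room temperature.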
% is scaled to controls: 0 for no effect and ±100 for the full control effect.

CCC(=O)N(c1ccccc1)C1(COC)CCN(CCc2cccs2)CC1
inactive: activity change, negative = cytotoxicity [1] -15.2% | activity, positive = activation [2] -0.031% | activity change [3] 0.614% | activation [4] 3.18% | activation [5] -0.0375% | activation [6] 2.69% | activation [7] 0.971% | activity change, negative = cytotoxicity [8] -17.6% | activity change, negative = cytotoxicity [9] 1.07% | activity change, negative = cytotoxicity [10] 1.72% | activity, negative = inhibition [11] 6.05% | activation [12] -9.83% | activity change, negative = inhibition [13] -11.3% | activation [14] -1.47% | activation [15] 0.517% | activity change, negative = inhibition [16] -12.6%

CCC(=O)N(c1ccccc1)C1(COC)CCN(CCn2nnn(CC)c2=O)CC1
inactive: activity change, negative = cytotoxicity [1] 3.02% | activity, positive = activation [2] -5.21% | activation [4] 0.277% | activation [5] -0.0022% | activation [6] -3.27% | activation [7] 2.56% | activity change, negative = cytotoxicity [8] -0.674% | activity change, negative = cytotoxicity [9] -17.1% | activity change, negative = cytotoxicity [10] -28.3% | Potency [17] | activity, negative = inhibition [11] 20.9% | activation [12] 0.398% | activation [18] 0.246% | activity change, negative = inhibition [19] 4.53% | activity change, negative = inhibition [13] 5.08% | activation [14] 4.63% | activation [15] -3.56%
